## AlphaSeq binding of Ab-14 heavy chain variants to a spike HR2 peptide

The measurements come from Li et al. 2023 (doi:10.1038/s41467-023-39022-2) through the FLAb antibody collection.

Antigen: PDVDLGDISGINAS, a 14-residue peptide of the SARS-CoV-2 spike HR2 region.

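The starting antibody came from a phage panning campaign against this peptide. These sequences belong to a second round, designed from the earlier measurements on random variants of the parent. Group labels follow the data file (En: ensemble of fine-tuned language models; HC: hill climbing; Gen: genetic algorithm; Gibbs: Gibbs sampling; a sequence that several methods proposed may carry one label only). AlphaSeq pools MATa yeast showing the antibodies with MATalpha yeast showing the peptide. The frequency of each diploid, read from paired DNA barcodes, reflects how well the two displayed proteins bind. Each replicate has its own calibration line, from reference interactions of the BCL2 family. Mating was done six times.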

Ab-14 is the parent antibody, in scFv form: VH, then a (GGGGS)3 linker, then VL. The light chain is unchanged in all variants.
VH: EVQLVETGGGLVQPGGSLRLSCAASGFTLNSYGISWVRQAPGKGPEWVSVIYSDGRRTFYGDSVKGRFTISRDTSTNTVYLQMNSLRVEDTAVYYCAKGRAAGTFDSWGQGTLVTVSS
VL: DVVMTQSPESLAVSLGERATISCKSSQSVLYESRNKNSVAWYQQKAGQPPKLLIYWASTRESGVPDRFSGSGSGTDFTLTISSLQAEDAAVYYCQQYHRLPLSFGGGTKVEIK

Each variant is given by its three heavy chain CDRs, as the data file delimits them; those of the parent are GFTLNSYGIS, VIYSDGRRTFYGDSVK, GRAAGTFDS. This list holds designs with more than six substitutions. The read-out is the apparent dissociation constant on a log10 scale (nM): the lower, the stronger. "ND" means that the variant was in the library but no mating with the target was seen in that replicate; the authors take this as a sign of poor binding, and no number exists.

Variant GFDLNEYGIS, VIYADGKRTAYVDSVK, GNVAGTFDL [En_Gen] gave -0.04, -0.29, -0.45, -0.65, -0.65, -0.19 (controls 0 of 18).
Variant GFDLNEYGIS, VIYADGVRTSYIDSVK, GNVAGTFDT [En_HC] gave -0.27, -0.45, -0.39, -0.52, -0.46, -0.31 (controls 2 of 18).
Variant GFNLNEYGIS, VIYADGRRTFYADSVK, GQVAGTFIM [En_HC] gave 0.28, 1.06, 0.27, 0.52, 0.16, 0.74 (controls 0 of 18).
Variant GFDLEDYGIS, VIYADGVRTAYSQNSK, GDNGIALDI [En_Gibbs] gave ND, ND, ND, ND, ND, 2.40 (controls 0 of 18).
Variant GFDIDEYGIS, VIYADGTRTAYDNSVK, GQMAGFFTN [En_Gibbs] gave ND, ND, 2.65, ND, ND, ND (controls 0 of 18).
Variant GFDLDEYGIS, VIYADGMRTAYADSVK, GQTAGTFDV [En_Gen] gave -0.81, -1.09, -0.83, -1.14, -1.23, -0.53 (controls 0 of 18).
Variant GFDLMEYGIS, VIYADGKRRAYENKVK, GGSVRSVVI [En_Gibbs] gave 0.19, 0.10, 0.35, -0.10, 0.77, 0.79 (controls 1 of 18).
Variant GFDLNEYGIS, VIYADGRRTAYSDSVK, GETAGFFDF [En_HC] gave ND, ND, ND, ND, ND, ND (controls 0 of 18).
Variant GFDLNEYGIS, VIYADGMRTAYIDSVK, GNQAGTFDV [En_Gen] gave 0.20, -0.16, -0.08, 0.23, -0.60, -0.63 (controls 0 of 18).
Variant GFDLDEYGIS, VIYADGRRKAYADSVK, GNVAGTFDV [En_Gen] gave 1.32, 0.21, -0.11, -0.86, -0.80, -0.69 (controls 0 of 18).
Variant GFDLNEYGIS, VIYADGVRKAYADSVK, GNNAGTFDV [En_Gen] gave -0.33, -0.74, -0.84, -0.51, -0.74, -0.36 (controls 0 of 18).
Variant GFDLNEYGIS, VIYADGMRKAYADSVK, GENAGTFDT [En_Gen] gave 0.01, -0.06, -0.16, -0.14, -0.15, -0.42 (controls 0 of 18).
Variant GFDLNEYGIS, VIYADGMRTSYADSVK, GTNAGTFDV [En_Gen] gave -1.33, -2.21, -1.45, -1.97, -0.32, -1.87 (controls 0 of 18).
Variant GFDLNEYGIS, VIYADGRRTFYADSVK, GTNGGTFDV [En_HC] gave 1.21, 0.43, 0.27, 0.61, 1.02, 0.70 (controls 0 of 18).
Variant GFDLDEYGIS, VIYADGRRTAYADDVK, GNNAGTFDV [En_Gen] gave -0.27, -0.42, -0.19, -0.31, -0.07, -0.03 (controls 1 of 18).
Variant GFDLNEYGIS, VIYADGRRTFYSDSVK, GQVAGIFNV [En_HC] gave -0.07, -0.20, -0.18, -0.26, -0.36, -0.13 (controls 0 of 18).
Variant GFDLNEYGIS, VIYADGMRTFYADNVK, GENAGTFDI [En_Gen] gave -1.14, -0.80, -0.96, 1.22, -1.31, -0.56 (controls 0 of 18).
Variant GFDLGEYGIS, VIYADGQRKAYAQQFK, GEAGGAFDL [En_Gibbs] gave 1.91, ND, ND, ND, ND, ND (controls 0 of 18).
Variant GFDLNEYGIS, VIYADGMRTAYADSVK, GNNAGTFDQ [En_Gen] gave 0.36, -0.53, -0.39, ND, -0.40, 0.45 (controls 0 of 18).
Variant GFDLQEYGIS, VIYADGQRANYVSQVK, GEQAGGFVL [En_Gibbs] gave ND, ND, ND, ND, ND, ND (controls 0 of 18).
Variant GFDLDEYGIS, VIYADGQRTFYADSVK, GNNAGTFDV [En_Gen] gave -0.47, -0.78, -0.64, -0.63, -0.74, -0.55 (controls 2 of 18).
Variant GFDLDEYGIS, VIYADGMRTAYADSVK, GNVAGTFDV [En_Gen] gave -0.17, -0.46, -0.42, -0.26, -0.65, -0.33 (controls 0 of 18).
Variant GFDLNEYGIS, VIYADGSRTAYADSVK, GQVAGTFDV [En_Gen] gave -0.40, -0.80, -0.68, -1.27, -0.74, -0.57 (controls 0 of 18).
Variant GFDLNEYGIS, VIYADGMRTYYADSVK, GTNAGTFDQ [En_Gen] gave ND, 0.36, 0.05, -0.41, -0.17, 0.09 (controls 0 of 18).
Variant GFDLNEYGIS, VIYADGVRTFYSDSVK, GNVGGSFDV [En_HC] gave 0.67, 0.08, -0.12, 0.40, 0.16, 0.31 (controls 0 of 18).
Variant GFDLNEYGIS, VIYADGRRTFYSDSVK, GGNGGTFDI [En_HC] gave 1.20, 0.61, 0.34, 0.91, 0.47, 0.70 (controls 0 of 18).
Variant GFDLDEYGIS, VIYADGVRTAYVDSVK, GENAGTFDV [En_Gen] gave -0.15, -0.06, -0.49, -0.33, -0.63, -0.37 (controls 1 of 18).
Variant GKSLEEYGIS, VIYADGKRTMYANDVK, GHVGYIFMM [En_Gibbs] gave ND, ND, ND, ND, ND, ND (controls 0 of 18).
Variant GFDIQEYGIS, VIYADGYRTAYKQKVK, GQIAGGQFD [En_Gibbs] gave ND, ND, ND, ND, ND, ND (controls 0 of 18).
Variant GFNFDEYGIS, VIYADGKRKAYSDSVK, GLSAGTMEV [En_Gibbs] gave ND, ND, ND, ND, ND, ND (controls 0 of 18).
Variant GEDLEEYGIS, VIYADGMRQYYANSVK, GDINDVDDL [En_Gibbs] gave ND, ND, ND, ND, ND, ND (controls 1 of 18).
Variant GFDLNEYGIS, VIYADGKRTAYADDVK, GNVAGTFDV [En_Gen] gave -0.89, -1.09, -1.03, -1.00, -0.42, -0.57 (controls 0 of 18).
Variant GRDLDEYGIS, VIYADGTRKMYAVNFK, GEHGGTFLM [En_Gibbs] gave ND, ND, ND, ND, ND, ND (controls 0 of 18).

A selection of 4 entries from above:

Variant GFDLNEYGIS, VIYADGMRTAYADSVK, GNNAGTFDQ [En_Gen] showed 0.36, -0.53, -0.39, ND, -0.40, 0.45 (controls 0 of 18).
Variant GFNLNEYGIS, VIYADGRRTFYADSVK, GQVAGTFIM [En_HC] showed 0.28, 1.06, 0.27, 0.52, 0.16, 0.74 (controls 0 of 18).
Variant GFDLDEYGIS, VIYADGMRTAYADSVK, GNVAGTFDV [En_Gen] showed -0.17, -0.46, -0.42, -0.26, -0.65, -0.33 (controls 0 of 18).
Variant GFDLNEYGIS, VIYADGMRTAYIDSVK, GNQAGTFDV [En_Gen] showed 0.20, -0.16, -0.08, 0.23, -0.60, -0.63 (controls 0 of 18).

A sequence measured in both rounds can read differently, since the two assays cover different ranges. Nonspecific signal, from three strains lacking the peptide, appeared in 1% of pairings of all heavy chain designs, centred on 2.08 (5% of these signals below 0.84); values are not corrected for it. Also given: how often the same scFv was detected with the empty control strains. The parent sequence was in this pool as ten entries: three were never detected, three once, and four in most replicates, with averages from 0.34 to 2.37. In the paper, a design with two or fewer of six values counts as a poor binder.